According to EP3996814B1, “USE OF A HERBAL EXTRACT COMPRISING VERBASCOSIDE AND AUCUBIN FOR THE TREATMENT OF OSTEOARTHRITIS OF THE KNEE” (Labiotre S.r.l., priority 2019, dated 2021):

Experiments:
COX-1 mRNA = experiment: RT-PCR analysis of COX-1 mRNA expression in LPS-stimulated neutrophils; type: cell-based, human; conditions: 5 µg/ml of LPS plus test substance 1%, 24 hours; untreated cells = 100 a.u.
COX-2 mRNA = experiment: RT-PCR analysis of COX-2 mRNA expression in LPS-stimulated neutrophils; type: cell-based, human; conditions: 5 µg/ml of LPS plus test substance 1%, 24 hours; untreated cells = 100 a.u.

**Q.** `Cc1ccc(-c2cc(C(F)(F)F)nn2-c2ccc(S(N)(=O)=O)cc2)cc1` [Celecoxib] was tested. Which “COX-1 mRNA levels” value (COX-1 mRNA) did it give?
**A.** 116 ± 4 a.u.

**Q.** What about the “COX-2 mRNA levels” value (COX-2 mRNA) of the same compound?
**A.** 283 ± 37 a.u.
